Reference: paper PMC10141604, “Small-Molecule Inhibition of Androgen Receptor Dimerization as a Strategy against Prostate Cancer” (ACS Central Science, 2023)

Tested on: endogenous PSA and AR in LNCaP cells
Test: Western blot of PSA and AR in LNCaP cells
Assay type: cell-based
Conditions: LNCaP, 0.1, 1, 10 μM, 10 nM DHT, 48 h

`CNC(=O)c1ccc(N2C(=S)N(c3ccc(C#N)c(C(F)(F)F)c3)C(=O)C2(C)C)cc1F` [Enz, enzalutamide, reference compound] was tested, and the “endogenous PSA production (Western blot)” value was “remarkably inhibited”.
